Test results published in patent US20090247520A1, “INHIBITORS OF ANTIGEN RECEPTOR-INDUCED NF-kappa B ACTIVATION” (The Burnham Institute for Medical Research, priority 2008, published 2009).

By UniProt entry, the sequences of proteins in these tests, tags left out. Where a name states a change or a piece, a line headed by the entry shows the natural chain unless it says otherwise.
UniProt O14920: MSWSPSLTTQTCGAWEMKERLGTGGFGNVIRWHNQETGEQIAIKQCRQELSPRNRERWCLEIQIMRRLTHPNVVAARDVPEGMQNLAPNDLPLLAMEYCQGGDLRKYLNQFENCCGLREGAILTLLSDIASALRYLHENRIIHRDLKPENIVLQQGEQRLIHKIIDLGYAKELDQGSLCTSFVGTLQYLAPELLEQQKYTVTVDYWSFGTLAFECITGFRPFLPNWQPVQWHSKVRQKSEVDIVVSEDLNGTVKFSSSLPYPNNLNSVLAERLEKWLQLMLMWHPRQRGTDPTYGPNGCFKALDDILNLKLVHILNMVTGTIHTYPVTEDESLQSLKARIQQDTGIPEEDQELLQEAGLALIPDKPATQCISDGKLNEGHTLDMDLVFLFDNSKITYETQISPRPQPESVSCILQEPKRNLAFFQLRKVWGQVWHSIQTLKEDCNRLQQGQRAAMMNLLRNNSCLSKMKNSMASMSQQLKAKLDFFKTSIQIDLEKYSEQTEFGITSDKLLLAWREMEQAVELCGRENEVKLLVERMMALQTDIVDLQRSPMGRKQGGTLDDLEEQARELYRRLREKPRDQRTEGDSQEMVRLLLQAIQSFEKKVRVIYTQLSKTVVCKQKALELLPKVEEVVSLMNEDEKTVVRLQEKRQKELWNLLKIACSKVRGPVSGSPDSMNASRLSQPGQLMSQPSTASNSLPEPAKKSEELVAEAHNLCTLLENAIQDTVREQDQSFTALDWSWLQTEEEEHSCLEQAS

Target: T1, IKK-beta (Homo sapiens, UniProt O14920)
T1 construct: purchased Cell Signaling, Danvers, Mass
Test: In vitro kinase assay IKK-beta (HTScan kit)
Format: biochemical
Conditions: CID-2858522 up to 8 μM; STS 0.5 μM; IKK inhibitor 10 μM
Method: CID-2858522 (8 μM) were tested in in vitro IKK beta (A), PKC beta […] or PKC theta (C) kinase assays using kits. STS (0.5 μM), IKK inhibitor (10 μM) and PKC inhibitor (1 μM) were used as positive controls.
In Vitro Kinase Assays. PKC-beta, PKC-theta and IKK-beta in vitro kinase assays were performed using the HTScan Kinase Assay Kit (Cell Signaling, Danvers, Mass.) according to manufacturer's protocols. A panel of >300 kinases was screened by Ambit, Inc.

CN[C@@H]1C[C@H]2O[C@@](C)([C@@H]1OC)n1c3ccccc3c3c4c(c5c6ccccc6n2c5c31)C(=O)NC4 [staurosporin]
inhibition of IKK-beta kinase activity: potent inhibition
